The values that follow are results of earlier work, collected in patent US11478526B2, “Methods of reducing neuroinflammation or toxicity induced by amyloid beta (abeta) using glucocorticoid induced leucine zipper (GILZ) analog peptides” (INDIANA UNIVERSITY RESEARCH AND TECHNOLOGY CORPORATION, priority 2016, dated 2022).

Protein sequences, listed by entry. Tags and fused reporters are not part of them.
UniProt Q04206, whole entry: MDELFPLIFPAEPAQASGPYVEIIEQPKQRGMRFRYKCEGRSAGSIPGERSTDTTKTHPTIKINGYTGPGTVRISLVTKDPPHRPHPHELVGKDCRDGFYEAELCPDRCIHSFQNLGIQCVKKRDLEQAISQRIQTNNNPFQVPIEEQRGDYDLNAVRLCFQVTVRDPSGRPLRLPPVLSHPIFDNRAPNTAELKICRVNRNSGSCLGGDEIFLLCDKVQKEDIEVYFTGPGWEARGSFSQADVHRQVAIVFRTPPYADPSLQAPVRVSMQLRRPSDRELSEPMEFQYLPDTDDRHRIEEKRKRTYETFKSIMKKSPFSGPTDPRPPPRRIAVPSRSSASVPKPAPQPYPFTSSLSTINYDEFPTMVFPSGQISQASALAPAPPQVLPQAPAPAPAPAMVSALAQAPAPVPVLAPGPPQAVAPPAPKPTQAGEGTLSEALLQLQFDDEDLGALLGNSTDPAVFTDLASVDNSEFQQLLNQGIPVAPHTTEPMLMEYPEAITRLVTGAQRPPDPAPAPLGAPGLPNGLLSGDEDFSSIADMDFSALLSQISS

In this data set the target is T1, Recombinant human p65 protein (r-p65) (Homo sapiens, UniProt Q04206).
T1 construct: purchased Ori-Gene Technologies Inc., Rockville, Md; TP320780
The conditions noted are these: previously shown; read-out: strength of interaction with r-p65; cited from earlier work.

B1: rGILZ: purified recombinant human GILZ protein (r-GILZ) with GST tag (protein)
chain: MNTEMYQTPMEVAVYQLHNFSISFFSSLLGGDVVSVKLDNSASGASVVAIDNKIEQAMDLVKNHLMYAVREEVEILKEQIRELVEKNSQLERENTLLKTLASPEQLEKFQSCLSPEEPAPESPQVPEAPGGSAV
modifications: left off: a dimerising Fc or GST
notes: purified recombinant human GILZ protein (r-GILZ) with GST tag
As to B1, the Kd was 591 nM.
